According to IntAct's records for PubMed 20511396:

B1: Transcription factor Jun (Homo sapiens), P05412 (parent)
chain: MTAKMETTFYDDALNASFLPSESGPYGYSNPKILKQSMTLNLADPVGSLKPHLRAKNSDLLTSPDVGLLKLASPELERLIIQSSNGHITTTPTPTQFLCPKNVTDEQEGFAEGFVRALAELHSQNTLPSVTSAAQPVNGAGMVAPAVASVAGGSGSGGFSASLHSEPPVYANLSNFNPGALSSGGGAPSYGAAGLAFPAQPQQQQQPPHHLPQQMPVQHPRLQALKEEPQTVPEMPGETPPLSPIDMESQERIKAERKRMRNRIAASKCRKRKLERIARLEEKVKTLKAQNSELASTANMLREQVAQLKQKVMNHVNSGCQLMLTQQLQTF

Variants of: B1
Details: with fos_human FOS

| effect of a mutation on the interaction | Variant |
| --- | --- |
| decreasing interaction strength | K283E;K288E;R302E;Q304E |
